The record followed here is publication PMC11024197, “Modulation of peroxisomal import by the PEX13 SH3 domain and a proximal FxxxF binding motif” (Nature Communications, 2024).

A word on the stoichiometry N: it is the number of molecules, sites or subunits per partner or assembly. By Kd is commonly meant the equilibrium constant for the complex coming apart.

Assay [1] concerns the target PEX13 SH3 domain (residues 261-346) (human) (UniProt Q92968). Briefly: ITC; PEX13 SH3 (35-48 µM) in the cell, titrated with peptide; 25 °C; 20 mM Tris pH 7.5, 50 mM NaCl; one-site binding model; triplicates.
The target of assay [2] is PEX13 SH3 domain (human) (UniProt Q92968). Briefly: ITC; PEX13 SH3 (35-48 uM) in the cell, peptide or fragment in the syringe; 25 °C, 20 mM Tris pH 7.5, 50 mM NaCl; one-site binding model; single runs of triplicates and their averages.
For assay [3] the target is unchanged. The experiment in a line: ITC; PEX13 SH3 at 35-48 µM titrated with PEX5 15-mer peptides or PEX5 1-76 (0.6-0.7 mM) or PEX13 350-403 (0.9-1 mM); 25 °C; 20 mM Tris pH 7.5, 50 mM NaCl; one-site model; triplicates. In general terms: In ITC the heat of successive injections is recorded.
The target in assay [4] is PEX5, cellular (T-REx 293 PEX13 KO cells) (human (endogenous in T-REx 293)) (UniProt P50542). The experiment in a line: co-IP; lysates of T-REx 293 PEX13 KO cells transfected with PEX13 variants; mouse PEX5 antibody coupled to dynabeads; 25 mM Tris/HCl pH 7.4, 150 mM NaCl, 1 % NP-40, 5 % glycerol; 1 h at 4 °C; immunoblot.

Turning to PEX5 W2 peptide, the stoichiometry N in assay [1] was determined as 1; in the assay with PEX13 SH3 domain (human) [2], 1 sites. In addition, the Kd with PEX13 SH3 domain (human) [3] came out at 88 µM.
In the case of PEX5 W3 peptide, the stoichiometry N in assay [1] was 1; with PEX13 SH3 domain (human) [2], 1 sites. Further, in the assay with PEX13 SH3 domain (human) [3], the Kd is 102 µM.
On to PEX5 W4 peptide, for which the values for the stoichiometry N (in assay [1]; with PEX13 SH3 domain (human) [2]) were 1 and 1 sites, respectively. The Kd with PEX13 SH3 domain (human) [3] amounted to 43 µM.
The substance “PEX13 FF/A5 (FxxxF motif replaced by polyA), expressed in cells (from UniProt Q92968 1-403) (natural protein)” showed a fold PEX5-bound PEX13 against PEX13 FL in assay [4] of 3.5 fold.
Regarding PEX13 ΔCTR (domain or fragment), in assay [4], the fold PEX5-bound PEX13 against PEX13 FL is 5 fold.
